The results in this text go back to ChEMBL document CHEMBL1141066, “Acetylenic TACE inhibitors. Part 2: SAR of six-membered cyclic sulfonamide hydroxamates” (Bioorg Med Chem Lett, 2005).

Sequences of proteins named here, by UniProt entry; tags and fusion partners are left off. A change or cut given only in a name is not applied to a line headed by its entry.
UniProt P78536: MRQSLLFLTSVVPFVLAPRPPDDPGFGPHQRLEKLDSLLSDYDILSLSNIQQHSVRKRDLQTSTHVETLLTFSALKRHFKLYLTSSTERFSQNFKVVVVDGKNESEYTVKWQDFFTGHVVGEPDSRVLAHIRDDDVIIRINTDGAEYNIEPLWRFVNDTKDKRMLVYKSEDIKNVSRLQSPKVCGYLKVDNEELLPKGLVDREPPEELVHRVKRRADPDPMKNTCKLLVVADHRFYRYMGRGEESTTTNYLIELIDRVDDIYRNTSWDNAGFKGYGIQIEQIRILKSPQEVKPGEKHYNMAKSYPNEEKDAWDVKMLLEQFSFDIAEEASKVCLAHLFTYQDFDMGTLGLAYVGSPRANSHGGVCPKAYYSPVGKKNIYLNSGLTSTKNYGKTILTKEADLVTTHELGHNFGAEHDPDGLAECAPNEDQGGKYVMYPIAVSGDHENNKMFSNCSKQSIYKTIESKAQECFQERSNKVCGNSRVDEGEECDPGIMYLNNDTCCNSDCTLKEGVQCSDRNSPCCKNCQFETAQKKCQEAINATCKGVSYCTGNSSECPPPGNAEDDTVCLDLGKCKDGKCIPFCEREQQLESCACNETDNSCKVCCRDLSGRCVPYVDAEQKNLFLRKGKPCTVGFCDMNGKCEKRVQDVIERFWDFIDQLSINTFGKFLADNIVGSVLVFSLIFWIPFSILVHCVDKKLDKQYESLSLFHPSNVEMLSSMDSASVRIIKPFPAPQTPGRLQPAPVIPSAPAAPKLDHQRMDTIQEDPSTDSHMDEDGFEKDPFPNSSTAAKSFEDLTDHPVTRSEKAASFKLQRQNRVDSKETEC
UniProt P14780: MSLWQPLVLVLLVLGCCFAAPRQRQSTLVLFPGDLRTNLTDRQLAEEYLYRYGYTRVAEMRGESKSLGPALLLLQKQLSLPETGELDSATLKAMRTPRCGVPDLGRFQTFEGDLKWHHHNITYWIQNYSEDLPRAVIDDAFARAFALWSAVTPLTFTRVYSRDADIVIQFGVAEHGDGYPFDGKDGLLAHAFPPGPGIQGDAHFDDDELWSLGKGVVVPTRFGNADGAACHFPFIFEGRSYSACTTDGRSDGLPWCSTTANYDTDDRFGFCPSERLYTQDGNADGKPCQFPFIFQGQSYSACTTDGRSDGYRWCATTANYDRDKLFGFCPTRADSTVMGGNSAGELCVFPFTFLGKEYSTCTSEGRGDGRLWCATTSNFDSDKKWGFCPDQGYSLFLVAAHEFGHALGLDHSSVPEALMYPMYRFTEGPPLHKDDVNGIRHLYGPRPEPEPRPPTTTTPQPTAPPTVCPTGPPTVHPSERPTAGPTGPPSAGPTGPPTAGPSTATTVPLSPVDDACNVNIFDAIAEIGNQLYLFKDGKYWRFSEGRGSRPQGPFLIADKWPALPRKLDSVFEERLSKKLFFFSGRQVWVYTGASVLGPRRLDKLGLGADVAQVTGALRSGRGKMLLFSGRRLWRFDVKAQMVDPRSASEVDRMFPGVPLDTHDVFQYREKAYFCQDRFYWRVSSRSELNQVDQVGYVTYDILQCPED

The target of assay [1] is Disintegrin and metalloproteinase domain-containing protein 17 (Homo sapiens, UniProt P78536). The experiment in a line: Inhibitory activity against TACE[ADAM metallopeptidase domain 17] in isolated enzyme assay.
Assay [2] deals with Collagenase 3 (Homo sapiens, UniProt P45452). The experiment in a line: Inhibitory activity against matrix metallopeptidase 13.
The target in assay [3] is Matrix metalloproteinase-9 (Homo sapiens, UniProt P14780). Nature of the assay: Inhibitory activity against matrix metallopeptidase 9.

With `CC#CCOc1ccc(S(=O)(=O)N2CCSC(C)(C)C2C(=O)NO)cc1` (stereo not drawn), the values for the 50% inhibitory concentration (IC50) in assay [1], in assay [2] and in assay [3] were 8 nM, 3 nM and 12 nM, respectively.
